These results are taken from patent US20240239788A1, “SMALL MOLECULE INHIBITORS OF KRAS G12D MUTANT” (Merck Sharp & Dohme LLC, priority 2021, published 2024).

Chains of the proteins cited; added tags and fusions are not shown. A line that says so, or that is headed by a name, gives the form on record, which may keep a tag or linker. Residues count along the entry.
UniProt P01116, 2-164 with tags or gaps G12D limits assumed: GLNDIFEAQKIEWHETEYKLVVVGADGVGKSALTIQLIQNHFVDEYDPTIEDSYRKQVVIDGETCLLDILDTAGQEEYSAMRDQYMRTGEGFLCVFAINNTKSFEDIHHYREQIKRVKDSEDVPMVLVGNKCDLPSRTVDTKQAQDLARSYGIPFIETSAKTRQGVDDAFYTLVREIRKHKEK

The subject of experiment [1] is AsPC-1 cells containing homozygous KRAS-G12D activating mutation. Kind of experiment: Cellular phospho-ERK assay (Examples 1a-106). The conditions noted are these: read-out: IC50 (nM) pERK (Cell), 2 hours, ratio of p-Erk vs total Erk.
Experiment [2] deals with KRAS protein containing G12D mutation (Homo sapiens (Human), UniProt P01116, G12D). Nature of the experiment: SOS-catalyzed nucleotide exchange assay (GNE), TR-FRET. The settings on record: read-out: IC50 (nM) (GNE); biotinylated KRAS G12D, SOS and GTP, 60-minute incubation.
Experiment [3] has as its target KRAS G12D / Ras binding domain of C-RAF (Homo sapiens (Human), UniProt P01116, G12D). Nature of the experiment: RAS:RAF-RBD binding assay (cRaf), TR-FRET. The conditions noted are these: read-out: IC50 (nM) (cRaf); biotinylated KRAS G12D, GST-C-RAF RBD.

Molecules are shown by their SMILES.

Consider `CC1C2CCC(CN2)N1c1nc(OCC2(CN(C)C)CC2)nc2c(F)c(-c3cc(O)cc4ccccc34)c(Cl)cc12` (single isomer, unassigned) [8a], for which the IC50 in experiment [1] turned out to be 22900 nM; in experiment [2] it was 7000 nM.
With `C[C@H]1N[C@H]2CC[C@@H]1N(c1nc(OCC3(CN(C)C)CC3)nc3c(F)c(-c4cc(O)cc5ccccc45)c(Cl)cc13)C2`, the IC50 in experiment [1] stood at 2540 nM; in experiment [3], 1790 nM; in experiment [2], 117 nM.
In the case of `CC1C2CCC(CN2)N1c1nc(OCC2(CN(C)C)CC2)nc2c(F)c(-c3cc(O)cc4ccccc34)c(Cl)cc12` (single isomer, unassigned) [8b], the IC50 in experiment [1] is 12300 nM; in experiment [2], 2180 nM.
